According to the NIST ThermoML archive (doi:10.1016/j.jct.2015.02.024):
Numbers after ± are expanded uncertainties.

Assay: activity coefficient (dimensionless); of the first substance listed, at infinite dilution; xn = mol fraction of the nth substance listed
Settings: 101 kPa, Liquid, Chromatography, x1 = 0

CCCCOCCCC [dibutyl ether] + C[N+]1(CCCO)CCOCC1.O=S(=O)([N-]S(=O)(=O)C(F)(F)F)C(F)(F)F
Settings	activity coefficient
318.15 K	56.8 ± 3.9
328.15 K	53.8 ± 3.7
338.15 K	50.9 ± 3.5
348.15 K	48.5 ± 3.3
358.15 K	46.3 ± 3.2
368.15 K	44.3 ± 3
